Experimental data from US20250313563A1, “GLYCOGEN SYNTHASE KINASE 3 INHIBITORS AND USES THEREOF” (The Broad Institute, Inc., priority 2022, published 2025).
Like-named read-outs stand apart in the source and are kept apart here. Each block holds one compound with its values, some of them ahead of it.

By UniProt entry, the sequences of proteins in these tests, tags left out.
UniProt P49841, whole entry: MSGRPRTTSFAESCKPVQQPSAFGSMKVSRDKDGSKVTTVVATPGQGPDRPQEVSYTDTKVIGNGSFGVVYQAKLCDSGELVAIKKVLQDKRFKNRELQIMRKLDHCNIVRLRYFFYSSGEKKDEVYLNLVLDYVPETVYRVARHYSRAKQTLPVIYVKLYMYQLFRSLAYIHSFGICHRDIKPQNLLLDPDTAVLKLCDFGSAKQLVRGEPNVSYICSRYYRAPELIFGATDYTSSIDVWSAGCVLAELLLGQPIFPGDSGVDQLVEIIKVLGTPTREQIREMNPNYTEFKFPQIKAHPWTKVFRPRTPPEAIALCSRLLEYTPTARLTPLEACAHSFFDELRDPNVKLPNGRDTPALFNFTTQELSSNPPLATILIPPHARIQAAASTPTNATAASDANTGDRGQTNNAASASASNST
UniProt P49840, whole entry: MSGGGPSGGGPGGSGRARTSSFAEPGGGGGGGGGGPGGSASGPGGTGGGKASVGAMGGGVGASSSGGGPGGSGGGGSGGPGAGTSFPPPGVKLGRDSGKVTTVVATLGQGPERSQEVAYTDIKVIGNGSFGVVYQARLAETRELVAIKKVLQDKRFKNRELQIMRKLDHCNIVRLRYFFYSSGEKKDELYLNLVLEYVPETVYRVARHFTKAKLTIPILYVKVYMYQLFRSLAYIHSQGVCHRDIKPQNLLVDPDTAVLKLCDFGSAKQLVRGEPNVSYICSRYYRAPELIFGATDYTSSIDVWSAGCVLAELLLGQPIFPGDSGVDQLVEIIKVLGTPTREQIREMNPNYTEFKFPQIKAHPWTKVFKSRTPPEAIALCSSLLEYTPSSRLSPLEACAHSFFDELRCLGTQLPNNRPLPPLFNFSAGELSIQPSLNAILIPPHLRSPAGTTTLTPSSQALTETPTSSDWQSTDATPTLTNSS

Legend:
[1] = target: GSK3b (GST-full length GSK3b) (Homo sapiens (Human), UniProt P49841); assay: GSK3b TR-FRET kinase assay; assay type: biochemical
[2] = target: GSK3α (GST-full length GSK3α) (Homo sapiens (Human), UniProt P49840); assay: GSK3α TR-FRET kinase assay; assay type: biochemical
[3] = read-out: GSK3-B (TR-FRET 1 mM ATP), GMean, IC50, 1 mM ATP, geometric mean
[4] = read-out: GSK3-B TR-FRET BIOCHEMICAL (TR-FRET), GMean, IC50, 1 nM GSK3b, 2 μM ATP, 30 minute preincubation, geometric mean
[5] = read-out: GSK3-A (TR-FRET 1 mM ATP), GMean, IC50, 1 mM ATP, geometric mean
[6] = read-out: GSK3-A TR-FRET BIOCHEMICAL (TR-FRET), GMean, IC50, 1 nM GSK3α, 4 μM ATP, 30 minute preincubation, geometric mean
[7] = read-out: GSK3-B TR-FRET BIOCHEMICAL (TR-FRET), IC50, 1 nM GSK3b, 2 μM ATP, 30 minute preincubation
[8] = read-out: GSK3-A TR-FRET BIOCHEMICAL (TR-FRET), IC50, 1 nM GSK3α, 4 μM ATP, 30 minute preincubation
[9] = read-out: GSK3-B TR-FRET BIOCHEMICAL (TR-FRET), IC50, 1 nM GSK3b, 2 μM ATP, 30 minute preincubation (Table 16)
[10] = read-out: GSK3-A TR-FRET BIOCHEMICAL (TR-FRET), IC50, 1 nM GSK3α, 4 μM ATP, 30 minute preincubation (Table 16)
[11] = read-out: GSK3-B TR-FRET BIOCHEMICAL (TR-FRET);, 1 nM GSK3b, 2 μM ATP, 30 minute preincubation, Table 16
[12] = read-out: GSK3-A TR-FRET BIOCHEMICAL (TR-FRET);, 1 nM GSK3α, 4 μM ATP, 30 minute preincubation, Table 16

Structure (SMILES): CC[C@@]1(c2cccc(-c3cnn(C)c3)c2)C2=C(CC(C)(C)NC2=O)Nc2n[nH]c(C(F)(F)F)c21
IC50 [1, 3]: 100 to 1000 nM
IC50 [1, 4]: < 100 nM
IC50 [2, 5]: < 100 nM
IC50 [2, 6]: < 100 nM

Structure (SMILES): CCc1cc(-c2cccc([C@@]3(CC)C4=C(CC(C)(C)NC4=O)Nc4n[nH]cc43)c2)ccn1
IC50 [1, 4]: 100 to 1000 nM
IC50 [2, 6]: < 100 nM

Structure (SMILES): CCC1(c2cccc(-c3cnn(C)c3C)c2)C2=C(CC(C)(C)NC2=O)Nc2n[nH]cc21 (stereo not drawn)
IC50 [1, 7]: 100 to 1000 nM
IC50 [2, 8]: < 100 nM

Structure (SMILES): CC[C@]1(c2cccc(-c3c4c(nn3C)CCCC4)c2)C2=C(CC(C)(C)NC2=O)Nc2n[nH]cc21
IC50 [1, 4]: > 5000 nM
IC50 [2, 6]: 100 to 1000 nM

Structure (SMILES): CC[C@]1(c2cccc(-c3cn(C)nc3C)c2)C2=C(CC(C)(C)NC2=O)Nc2n[nH]c(F)c21
IC50 [1, 4]: > 5000 nM
IC50 [2, 6]: 1000 to 5000 nM

Structure (SMILES): CC[C@]1(c2cccc(-c3cnn(C4CC4)c3)c2)C2=C(CC(C)(C)CC2=O)Nc2n[nH]cc21
IC50 [1, 9]: > 5000 nM
IC50 [2, 10]: 1000 to 5000 nM

Structure (SMILES): CC[C@@]1(c2cccc(Cc3ncccn3)c2)C2=C(CC(C)(C)CC2=O)Nc2n[nH]cc21
IC50 [1, 11]: < 100 nM
IC50 [2, 12]: < 100 nM

Structure (SMILES): CCC1(c2cccc(C)c2)C2=C(CC3(CCCC3)CC2=O)Nc2n[nH]cc21 (stereo not drawn)
IC50 [1, 4]: 100 to 1000 nM
IC50 [2, 6]: < 100 nM

Structure (SMILES): CC[C@@]1(c2cccc(Br)c2)C2=C(C[C@H](C)CC2=O)Nc2n[nH]cc21
IC50 [1, 4]: > 5000 nM
IC50 [2, 6]: > 5000 nM

Structure (SMILES): CC[C@]1(c2cccc(-c3ccnn3C)c2)C2=C(C[C@]3(CCOC3)NC2=O)Nc2n[nH]cc21
IC50 [1, 4]: < 100 nM
IC50 [2, 6]: < 100 nM

Structure (SMILES): CC(C)(C)Cc1[nH]nc2c1[C@@]1(CCc3cc(F)ccc31)C1=C(CC(C)(C)CC1=O)N2
IC50 [1, 4]: < 100 nM
IC50 [2, 6]: 100 to 1000 nM

Structure (SMILES): CCC1(c2cccc(N(C)c3ncccn3)c2)C2=C(CC(C)(C)NC2=O)Nc2n[nH]c(Cl)c21 (stereo not drawn)
IC50 [1, 9]: < 100 nM
IC50 [2, 10]: < 100 nM

Structure (SMILES): CC[C@]1(c2ccc(OC(C)C)cc2)C2=C(CC(C)(C)CC2=O)Nc2n[nH]c(C(F)(F)F)c21
IC50 [1, 11]: < 100 nM
IC50 [2, 12]: < 100 nM

Structure (SMILES): CC[C@]1(c2cccc(Br)c2)C2=C(C[C@H](C(F)(F)F)CC2=O)Nc2n[nH]cc21
IC50 [1, 4]: 100 to 1000 nM
IC50 [2, 6]: < 100 nM

Structure (SMILES): CC[C@@]1(c2cccc(-c3cn(C)nc3C)c2)C2=C(CC3(CCCC3)NC2=O)Nc2n[nH]cc21
IC50 [1, 3]: 1000 to 5000 nM
IC50 [1, 9]: < 100 nM
IC50 [2, 5]: < 100 nM
IC50 [2, 10]: < 100 nM

Further lines, results first:

IC50 [1, 3]: 100 to 1000 nM
IC50 [1, 4]: < 100 nM
IC50 [2, 5]: < 100 nM
IC50 [2, 6]: < 100 nM
Structure (SMILES): CC[C@]1(c2cccc(Br)c2)C2=C(CC(C)(C)CC2=O)Nc2n[nH]c(C(F)(F)F)c21

IC50 [1, 9]: 1000 to 5000 nM
IC50 [2, 10]: 100 to 1000 nM
Structure (SMILES): CCC1(c2cccc(N(C)c3ccnn3C)c2)C2=C(CC(C)(C)CC2=O)Nc2n[nH]cc21 (stereo not drawn)

IC50 [1, 11]: 100 to 1000 nM
IC50 [2, 12]: < 100 nM
Structure (SMILES): CC[C@@]1(c2cccc(Cc3ncccc3C(F)(F)F)c2)C2=C(CC(C)(C)CC2=O)Nc2n[nH]cc21

IC50 [1, 3]: > 5000 nM
IC50 [1, 9]: > 5000 nM
IC50 [2, 5]: > 5000 nM
IC50 [2, 10]: 1000 to 5000 nM
Structure (SMILES): CC[C@]1(c2cccc(-c3ccnn3C)c2)C2=C(CC(C)(C)CC2=O)Nc2n[nH]c(C)c21

IC50 [1, 3]: 1000 to 5000 nM
IC50 [1, 11]: < 100 nM
IC50 [2, 5]: 100 to 1000 nM
IC50 [2, 12]: < 100 nM
Structure (SMILES): CC[C@@]1(c2cccc(N(C)c3nccc(OC)n3)c2)C2=C(CC(C)(C)CC2=O)Nc2n[nH]cc21

IC50 [1, 4]: 100 to 1000 nM
IC50 [2, 6]: < 100 nM
Structure (SMILES): CC[C@]1(c2cccc(N(C)c3ncccn3)c2)C2=C(CC(C)(C)NC2=O)Nc2n[nH]c(C(F)(F)F)c21

IC50 [1, 4]: < 100 nM
IC50 [2, 6]: < 100 nM
Structure (SMILES): CC[C@@]1(c2cccc(-c3ccncc3C)c2)C2=C(C[C@@]3(CCOC3)NC2=O)Nc2n[nH]cc21

IC50 [1, 11]: > 5000 nM
IC50 [2, 12]: > 5000 nM
Structure (SMILES): CC[C@]1(c2cccc(CN(C)c3ccc(F)nc3)c2)C2=C(CC(C)(C)CC2=O)Nc2n[nH]cc21

IC50 [1, 7]: 1000 to 5000 nM
IC50 [2, 8]: 100 to 1000 nM
Structure (SMILES): CC1(C)CC(=O)C2=C(C1)Nc1n[nH]cc1[C@@]21COC2(CN(C(=O)[C@H]3CC3(F)F)C2)C1

IC50 [1, 4]: 100 to 1000 nM
IC50 [2, 6]: 100 to 1000 nM
Structure (SMILES): CC1(C)CC(=O)C2=C(C1)Nc1n[nH]c(CCC(F)(F)F)c1C21CCc2c(F)cccc21 (stereo not drawn) [Compound 874323]

IC50 [1, 11]: 100 to 1000 nM
IC50 [2, 12]: < 100 nM
Structure (SMILES): CC[C@@]1(c2cccc(-c3ccncc3C)c2)C2=C(CC(C)(C)CC2=O)Nc2n[nH]c(C(F)(F)F)c21

IC50 [1, 9]: 100 to 1000 nM
IC50 [2, 10]: < 100 nM
Structure (SMILES): CC[C@@]1(c2cc(N(C)C(C)=O)ccc2F)C2=C(CC(C)(C)CC2=O)Nc2n[nH]cc21

IC50 [1, 9]: > 5000 nM
IC50 [2, 10]: 1000 to 5000 nM
Structure (SMILES): CC[C@]1(c2cccc(-c3cc(C)ncc3OC)c2)C2=C(CC(C)(C)NC2=O)Nc2n[nH]cc21
